## Measured affinities in a library of Ab-91 heavy chain variants

Reference: Engelhart et al. 2022, doi:10.1038/s41597-022-01779-4. File: FLAb, binding data.

Antigen: PDVDLGDISGINAS, a 14-residue peptide of the SARS-CoV-2 spike HR2 region.

Parent: Ab-91, a human scFv built as VL, three GGGGS repeats, VH. Only the CDRs of the heavy chain vary.
VL: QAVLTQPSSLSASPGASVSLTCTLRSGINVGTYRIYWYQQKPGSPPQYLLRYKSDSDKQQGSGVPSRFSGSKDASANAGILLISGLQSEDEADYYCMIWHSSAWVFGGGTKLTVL
VH: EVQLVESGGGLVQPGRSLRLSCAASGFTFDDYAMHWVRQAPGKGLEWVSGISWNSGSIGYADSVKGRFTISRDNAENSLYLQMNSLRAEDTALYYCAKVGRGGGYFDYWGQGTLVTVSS

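The starting antibody came from a phage panning campaign against this peptide. AAYL51 was designed without a model: most single CDR substitutions and a random sample of double and triple ones. The scFvs were displayed on barcoded MATa yeast, the peptide on MATalpha yeast. The frequency of each diploid, read from paired DNA barcodes, reflects how well the two displayed proteins bind. Each replicate has its own calibration line, from reference interactions of the BCL2 family. There are three technical replicates.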

Substitutions are numbered in sequence along the VH above, starting at 1 (not Kabat).
All variants listed here change G59 of the VH, counted from its first residue.
The Kd shown is the geometric mean over detected replicates; a lower Kd is a better binder.
Where no diploid with the target was found in any replicate, the entry reads "nd": below detection, most likely a poor binder, though not proof of it.
Background: pairings of library AAYL51 with three empty control strains gave a value in 21% of cases (median 34 µM, 5th percentile 1.8 µM). Values in that range, when seen in few replicates, are hard to tell from nonspecific mating. The control count says in how many pairings with the empty strains this scFv gave a signal.
Parent in this assay: reference entry 72 nM, copy in this library 7.5 nM.

| changes | apparent Kd | detected | signal with controls |
|---|---|---|---|
| G59K/F106P/Y108Q | nd | 0 of 3 | 0 of 9 |
| F27S/G59M/R101L | 58 µM | 3 of 3 | 8 of 9 |
| G26F/D30H/G59A | 230 µM | 1 of 3 | 1 of 9 |
| T28P/G59E/Y60K | 17 µM | 1 of 3 | 1 of 9 |
| T28Y/D31W/G59I | nd | 0 of 3 | 0 of 9 |
| T28K/S52R/G59C | 160 µM | 1 of 3 | 1 of 9 |
| G59M/S63C/G100R | 22 µM | 2 of 3 | 6 of 9 |
| D31W/G59W | nd | 0 of 3 | 0 of 9 |
| G59H/V99H/F106T | 25 µM | 1 of 3 | 0 of 9 |
| F27E/G59L/G100W | 50 µM | 1 of 3 | 3 of 9 |
| S52K/G59D/Y105D | 34 µM | 1 of 3 | 1 of 9 |
| G59Y/D62M/G103R | nd | 0 of 3 | 0 of 9 |
| T28M/G59T/V99Q | nd | 0 of 3 | 0 of 9 |
| G59Y/D62H/V64I | 830 µM | 1 of 3 | 2 of 9 |
| T28C/M34E/G59I | 410 µM | 1 of 3 | 2 of 9 |
| H35Q/G59M/Y60A | 27 µM | 1 of 3 | 3 of 9 |
| D31E/Y32M/G59P | 47 µM | 1 of 3 | 3 of 9 |
| G59Q/G103R/G104D | 47 µM | 2 of 3 | 8 of 9 |
| D31E/Y32N/G59C | nd | 0 of 3 | 0 of 9 |
| G50N/S55M/G59K | nd | 0 of 3 | 0 of 9 |
| T28I/A33E/G59Q | nd | 0 of 3 | 0 of 9 |
| S52K/G59T/D107T | nd | 0 of 3 | 0 of 9 |
| D30I/G56M/G59Y | 3.7 µM | 2 of 3 | 0 of 9 |
| G59N/F106L/Y108E | 3.3 µM | 1 of 3 | 1 of 9 |
| G59Y/D62S/Y105N | nd | 0 of 3 | 0 of 9 |
| A33M/S55V/G59S | nd | 0 of 3 | 0 of 9 |
| I58K/G59A/G102R | 4.4 µM | 2 of 3 | 3 of 9 |
| M34L/G59I/D62H | 67 µM | 1 of 3 | 4 of 9 |
| G59D/K65D/G104Y | 130 µM | 2 of 3 | 5 of 9 |
| G26P/H35Q/G59F | 230 µM | 3 of 3 | 4 of 9 |
| G59W/V99I/Y105N | 37 µM | 2 of 3 | 3 of 9 |
| D31A/G59N/G102Y | 25 µM | 2 of 3 | 6 of 9 |
| G59W/S63N/G102Y | nd | 0 of 3 | 0 of 9 |

Top 2 of the variants detected in all replicates, tightest first:

| changes | apparent Kd | detected | signal with controls |
|---|---|---|---|
| F27S/G59M/R101L | 58 µM | 3 of 3 | 8 of 9 |
| G26P/H35Q/G59F | 230 µM | 3 of 3 | 4 of 9 |